## Reported boiling point values for industrial, environmental and drug-like chemicals

Values as listed in the OPERA 2.9 repository of K. Mansouri.

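The OPERA project collected these measurements from public sources as training and test data for property models. The files give a single number for a compound and property, which may rest on several reports. Method, purity and exact conditions of the single measurements are not given. A value may pool stereoisomers or salt forms, and the file does not say which form was measured. Some entries may be limits or estimates that an upstream database listed as plain numbers.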

The boiling point refers to atmospheric pressure (760 mmHg), by the definition of the set. "–" marks a cell with nothing listed here. "via" names the databases from which the curators took the value.

SMILES,name,bp (°C),via
CCCCC/C=C\C=C\C(=O)OCC,"Ethyl (2E,4Z)-deca-2,4-dienoate",248.8,eChemPortal
CC(=CC(C)C)C(C)OC(C)(C)CO (centres undefined),"2-Methyl-2-[(1,2,4-trimethyl-2-penten-1-yl)oxy]-1-propanol",223,eChemPortal
CO[Si](CCCS[Si](C)(C)C(C)(C)C)(OC)OC,–,295.9,eChemPortal
O=c1oc(-c2ccc(-c3nc4ccccc4c(=O)o3)cc2)nc2ccccc12,"4H-3,1-Benzoxazin-4-one, 2,2'-(1,4-phenylene)bis-",456,eChemPortal
C#CC(C)OC(C)OCC (centres undefined),"1-Butyne, 3-(1-ethoxyethoxy)-",147,eChemPortal
CCCCCCCCCCCCCCCCCCCCCCOC(=O)c1ccc(O)cc1,Docosyl 4-hydroxybenzoate,407,eChemPortal
C#CC/C=C/C,2-Hexen-4-yne,88.5,OCHEM
C/C(C=O)=C\c1ccc(CC(C)C)cc1,(2E)-2-Methyl-3-[4-(2-methylpropyl)phenyl]-2-propenal,285,eChemPortal
CCCCC(CC)COC(=O)/C=C(/C)C(=O)OCC(CC)CCCC (stereo partly drawn),di(2-Ethylhexyl) (2Z)-2-methyl-2-butenedioate,271,eChemPortal
Cn1cc(C(=O)Cl)c(C(F)F)n1,3-(Difluoromethyl)-1-methyl-1H-pyrazole-4-carbonyl chloride,272.5,eChemPortal
O=C(Cl)C(F)(F)C(F)(F)C(F)(F)C(F)(F)C(F)(F)C(F)(F)C(F)(F)C(F)(F)C(F)(F)F,Nonadecafluorodecanoyl chloride,170,ChemicalBook
COC(=O)C(F)(F)C(F)OC(F)(F)C(F)(F)C(F)(F)OC(F)(F)F (centres undefined),Methyl perfluoro-3-(3-methoxypropoxy)-3H-propanoate,149.5,eChemPortal
CC1(C)[C@H]2CC[C@]3(C2)[C@H]1C1(CCC3(C)C)OCCO1,–,280,OCHEM
C=CCOCC(CC)(CO)COCC=C,"2,2-Bis[(prop-2-en-1-yloxy)methyl]butan-1-ol",260.9,eChemPortal
CC1C(C)(C)C2=C(c3ncncc3CC2)C1(C)C (centres undefined),–,335,eChemPortal
C=CCOC(=O)C(C)(C)O,allyl 2-hydroxyisobutyrate,169.9,eChemPortal
N#CCCOc1ccccc1,3-Phenoxypropiononitrile,266,OCHEM
CCC[C@H]1CC[C@H](c2cccc(F)c2)CC1,1-Fluoro-3-(trans-4-propylcyclohexyl)benzene,296.7,eChemPortal
Clc1ccccc1-c1cccc2c1-c1ccccc1C2(c1ccccc1)c1ccccc1,"4-(2-Chlorophenyl)-9,9-diphenyl-9H-fluorene",480,eChemPortal
COC(=O)c1ccc(C(=O)OC)c(C(=O)OC)c1,"Trimethyl benzene-1,2,4-tricarboxylate",341.2,eChemPortal
CC(=O)O[Si](C)(OC(C)=O)OC(C)C,"Silanediol, 1-methyl-1-(1-methylethoxy)-, 1,1-diacetate",171.3,eChemPortal
CCCCc1ccc(-c2ccc(-c3ccc(CC)cc3)c(F)c2F)cc1,–,431,eChemPortal
CC(C)(C)C(=O)C=Cc1ccc2c(c1)OCO2,"1-(1,3-Benzodioxol-5-yl)-4,4-dimethyl-1-penten-3-one",332,eChemPortal
CC(CCl)OP(=O)(OCC(CCl)(CCl)COP(=O)(OC(C)CCl)OC(C)CCl)OC(C)CCl (centres undefined),–,231.3,eChemPortal
CC(c1ccccc1)c1ccc(O)cc1O (centres undefined),"4-(1-Phenylethyl)benzene-1,3-diol",366.5,eChemPortal
CC(=O)OCCC(C)CC=O (centres undefined),5-(Acetyloxy)-3-methylpentanal,211.8,eChemPortal
CC(CN)CCCCCCN (centres undefined),"1,8-Octanediamine, 2-methyl-",244,eChemPortal
CCOC(C)C#N (centres undefined),2-Ethoxypropanenitrile,136,OCHEM
C[Si](C)(F)CCCC#N,4-[Fluoro(dimethyl)silyl]butanenitrile,202.4,eChemPortal
FC(F)(F)C(F)(F)C1CCCCC1,(Pentafluoroethyl)cyclohexane,101.5,ChemicalBook
CC(C)CC1CCC(CCC=O)CC1 (centres undefined),4-(2-Methylpropyl)cyclohexanepropanal,265,eChemPortal
Nc1ccc2cc(S(=O)(=O)O)cc(O)c2c1,6-Amino-4-hydroxynaphthalene-2-sulfonic acid,458,eChemPortal
CCCCCCCCC=CCCCCCCCCO[PH](=O)OCCCCCCCCC=CCCCCCCCC,"Phosphonic acid, di-9-octadecenyl ester",322.1,eChemPortal

Extract of 3 entries:

| SMILES | name | bp (°C) | via |
|---|---|---|---|
| CO[Si](CCCS[Si](C)(C)C(C)(C)C)(OC)OC | – | 295.9 | eChemPortal |
| CC(C)(C)C(=O)C=Cc1ccc2c(c1)OCO2 | 1-(1,3-Benzodioxol-5-yl)-4,4-dimethyl-1-penten-3-one | 332 | eChemPortal |
| CCCCc1ccc(-c2ccc(-c3ccc(CC)cc3)c(F)c2F)cc1 | – | 431 | eChemPortal |